Measured values taken from PubChem BioAssay AID504634 (The Scripps Research Institute Molecular Screening Center, 2011).
The list shows a part of the results, in another mix than the full data. Active and inactive are the calls of the source. Cut-off read from the data, not from the text of the source: active = inhibition mostly above about 23% (no sharp cut-off); inactive = mostly below about 18%.

Chains of the proteins cited; added tags and fusions are not shown.
UniProt P47898, whole entry, looked up: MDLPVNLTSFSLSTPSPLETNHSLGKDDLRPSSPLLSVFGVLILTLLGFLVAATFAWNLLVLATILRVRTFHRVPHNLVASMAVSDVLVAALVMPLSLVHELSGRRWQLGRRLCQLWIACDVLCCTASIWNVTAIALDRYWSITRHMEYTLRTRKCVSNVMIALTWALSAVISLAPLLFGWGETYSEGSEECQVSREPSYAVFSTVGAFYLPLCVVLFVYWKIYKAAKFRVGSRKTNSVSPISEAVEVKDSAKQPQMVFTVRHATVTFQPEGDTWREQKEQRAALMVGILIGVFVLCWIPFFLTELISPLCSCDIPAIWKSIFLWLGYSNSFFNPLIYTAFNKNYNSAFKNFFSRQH

Target: 5-hydroxytryptamine receptor 5A (Homo sapiens) (UniProt P47898)
Test: inverse agonism at human 5-HT5A receptor – cell-based, luminescence, full-deck HTS, counter-screen for OPRM1-OPRD1 heterodimer inverse agonist project, primary screen (AID 504634);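 note: 0% = cells with DMSO and 100% = no-cell wells with DMSO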
Settings: HTR5A cell line, at 9.3 µM, hits give high values

How did the inhibition turn out when `COC(=O)C1(C)COP(=O)(Nc2ccccc2)OC1` (stereo not given) was run?
Its inhibition is inactive: 1.27%.

Which inhibition does the source give for `CCN(CC)S(=O)(=O)c1ccc(NC2CCN(Cc3ccccc3)CC2)nc1` here?
Its inhibition is inactive: -14.6%.

For `O=S(=O)(Cc1ccccc1)N1CCn2c(nc3ccccc32)C1`, which inhibition is on record?
The inhibition was inactive: 5.1%.

`CC1CCCN(Cc2nc3c(c(=O)n(C)c(=O)n3C)n2CC(N)=O)C1` (stereo not given) was tested. Which inhibition did it give?
The inhibition was inactive: -19.1%.

How did the inhibition turn out when `CN1CCN(c2nc3c(c(=O)n(C)c(=O)n3C)n2CC(N)=O)CC1` was run?
Its inhibition is inactive: -15.2%.

Which inhibition does the source give for `CSc1nc(N)nc2c1ncn2CC(=O)N1CCN(c2ccccn2)CC1` here?
The inhibition was inactive: -1.07%.

`CCOc1ccc(NC(=O)CN(C)C(=O)Cn2cnc3c2c(=O)n(C)c(=O)n3C)cc1OCC` was tested. Which inhibition did it give?
The inhibition was inactive: -8.65%.

How did the inhibition turn out when `CC(C)C[C@H](NC(=O)N1CCn2c1nc1ccccc12)C(=O)NCC1CCCO1` (stereo not given in full) was run?
The inhibition was inactive: -20.6%.

`O=[N+]([O-])c1ncn(CCn2ncnc2[N+](=O)[O-])n1` was tested. Which inhibition did it give?
Its inhibition is inactive: -9.13%.

With `CCCn1c(=O)[nH]c(=O)c2c1nc(-c1ccc(OC(F)F)cc1)n2CCN1CCOCC1` as the molecule, how does the inhibition read?
Its inhibition is inactive: 20.7%.

Which inhibition does the source give for `Cn1c(=O)c2ncn(CC(=O)Nc3nc(-c4ccc(Cl)cc4)cs3)c2n(C)c1=O` here?
The inhibition was inactive: -26.8%.

Which inhibition does the source give for `CC(C)(C)NC(=O)Cn1c(SCC(=O)N2CCCCCC2)nc2ccccc21` here?
Its inhibition is inactive: -60.5%.

Which inhibition does the source give for `CSCC[C@H](NC(=O)N1CCn2c1nc1ccccc12)C(=O)NCc1ccco1` here?
The inhibition was inactive: -9.27%.

For `Cc1ccc2c(c1)C1CN(C)CCC1N2C(=O)Nc1cccc(C(F)(F)F)c1` (stereo not given), which inhibition is on record?
The inhibition was inactive: 2.4%.

`Cn1c(=O)c2c(ncn2CC(=O)Nc2ccc(N3CCOCC3)cc2)n(C)c1=O` was tested. Which inhibition did it give?
Its inhibition is inactive: -11.1%.

Which inhibition does the source give for `CSc1nc2ccccc2n1CC(=O)N1CCCCC1` here?
The inhibition was inactive: 22.3%.

For `CC(C)OC(=O)c1ccc(NC(=O)Cn2c(-c3nonc3N)nc3ccccc32)cc1`, which inhibition is on record?
Its inhibition is inactive: -29%.

How did the inhibition turn out when `C/C(=N\NC(=O)Cn1c(-c2ccccn2)nc2ccccc21)c1ccccc1` was run?
Its inhibition is inactive: 11.3%.

With `O=[N+]([O-])c1ccc2c(c1)nc1n2CCN(CC2CCCO2)C1` (stereo not given) as the molecule, how does the inhibition read?
The inhibition was inactive: -24.1%.

For `CN(C)C(=O)Cn1c(=O)n(S(=O)(=O)c2ccccc2)c2ccccc21`, which inhibition is on record?
Its inhibition is inactive: -12.8%.

For `C/C(=N\NC(=O)Cn1cnc2ccccc21)c1cccs1`, which inhibition is on record?
The inhibition was inactive: 17.5%.

For `c1ccc(CN2CCC(Nc3ncnc4sccc34)CC2)cc1`, which inhibition is on record?
Its inhibition is inactive: -1.58%.

`CCCCc1nc2ccccc2n1CC(=O)NN` was tested. Which inhibition did it give?
Its inhibition is inactive: 2.82%.

`CSCC[C@H](NC(=O)N1CCn2c1nc1ccccc12)C(=O)N[C@@H](C(=O)O)c1ccccc1` was tested. Which inhibition did it give?
The inhibition was inactive: -33.8%.

With `CC(C)(C)C(=O)NC(Sc1ccncn1)C(Cl)(Cl)Cl` (stereo not given) as the molecule, how does the inhibition read?
Its inhibition is inactive: 7.66%.

For `COc1ccc(CN(C)C(=O)Cn2cnc3c(NCc4ccccc4)ncnc32)cc1OC`, which inhibition is on record?
Its inhibition is inactive: 6.46%.

With `CCN(Cc1ccccc1)C(=O)Cn1c(C(C)O)nc2ccccc21` (stereo not given) as the molecule, how does the inhibition read?
Its inhibition is inactive: -24.3%.

With `Cn1c(=O)c2c(ncn2CC(=O)NC(C)(C)C)n(C)c1=O` as the molecule, how does the inhibition read?
Its inhibition is inactive: 0.11%.

For `C[C@@H](NC(=O)Cn1cnc2c(NCc3ccccc3)ncnc21)c1cccc2ccccc12`, which inhibition is on record?
The inhibition was inactive: -3.17%.

Which inhibition does the source give for `CCCCOC(=O)Cn1c(=N)n(CCN(CC)CC)c2ccccc21` here?
Its inhibition is inactive: -1.08%.

Which inhibition does the source give for `O=C(Cn1c(COc2ccccc2)nc2ccccc21)Nc1cccc(Cl)c1` here?
The inhibition was inactive: 4.36%.

With `Cc1cccc(NC(=O)Cn2c(=O)n(C)c3ccccc32)c1` as the molecule, how does the inhibition read?
Its inhibition is inactive: 15.6%.

`COc1ccc(NC2CCN(C3CC(=O)N(c4ccc(F)c(Cl)c4)C3=O)CC2)cc1` (stereo not given) was tested. Which inhibition did it give?
Its inhibition is inactive: 7.99%.

How did the inhibition turn out when `CN(C(=O)Cc1ccc(Cl)c(Cl)c1)[C@H]1CCCC[C@@H]1N1CCCC1` was run?
The inhibition was inactive: -47.8%.

How did the inhibition turn out when `c1ccc(CN2CCC(Nc3nc(-c4cccs4)nc4ccccc34)CC2)cc1` was run?
The inhibition was inactive: 5.38%.

For `Cc1ccc(NP(=O)(Oc2ccccc2F)Oc2ccccc2F)nc1`, which inhibition is on record?
Its inhibition is inactive: -4.84%.

How did the inhibition turn out when `Cn1c(=O)c2c(ncn2CC(=O)Nc2nc3ccc(F)cc3s2)n(C)c1=O` was run?
Its inhibition is inactive: -18.2%.

With `CCOP(=O)(Nc1ccccc1)OCC` as the molecule, how does the inhibition read?
The inhibition was inactive: 10%.

With `CCOc1ccc2nc(NC(=O)Cn3cnc4c3c(=O)n(C)c(=O)n4C)sc2c1` as the molecule, how does the inhibition read?
The inhibition was inactive: -4.25%.

With `O=C(Cn1c(/C=C/c2ccccc2)nc2ccccc21)Nc1ccc(F)cc1` as the molecule, how does the inhibition read?
The inhibition was inactive: 11.8%.

With `Cc1csc2c(NC3CCN(Cc4ccccc4)CC3)ncnc12` as the molecule, how does the inhibition read?
The inhibition was inactive: -9.48%.

With `CCC(=O)Nc1nc2ccccc2n1CCN1CCOCC1` as the molecule, how does the inhibition read?
The inhibition was inactive: 10.7%.

With `Cc1cccc(OCC(O)Cn2c(=N)n(CCN3CCOCC3)c3ccccc32)c1` (stereo not given) as the molecule, how does the inhibition read?
The inhibition was inactive: 15.3%.

With `O=C(CSc1nc2ccccc2n1CC(=O)N1CCCC1)NCc1ccc2c(c1)OCO2` as the molecule, how does the inhibition read?
The inhibition was inactive: 8.06%.

For `Cc1cc(SC(NC(=O)c2ccc(F)cc2)C(Cl)(Cl)Cl)ncn1` (stereo not given), which inhibition is on record?
Its inhibition is inactive: 16.2%.
